This passage reports EC50, Ratio Ki and Ki results from ChEMBL document CHEMBL2151002 (J Med Chem, 2012).

The chains behind the UniProt entries cited, without tags or fusion partners.
UniProt P14416, whole entry: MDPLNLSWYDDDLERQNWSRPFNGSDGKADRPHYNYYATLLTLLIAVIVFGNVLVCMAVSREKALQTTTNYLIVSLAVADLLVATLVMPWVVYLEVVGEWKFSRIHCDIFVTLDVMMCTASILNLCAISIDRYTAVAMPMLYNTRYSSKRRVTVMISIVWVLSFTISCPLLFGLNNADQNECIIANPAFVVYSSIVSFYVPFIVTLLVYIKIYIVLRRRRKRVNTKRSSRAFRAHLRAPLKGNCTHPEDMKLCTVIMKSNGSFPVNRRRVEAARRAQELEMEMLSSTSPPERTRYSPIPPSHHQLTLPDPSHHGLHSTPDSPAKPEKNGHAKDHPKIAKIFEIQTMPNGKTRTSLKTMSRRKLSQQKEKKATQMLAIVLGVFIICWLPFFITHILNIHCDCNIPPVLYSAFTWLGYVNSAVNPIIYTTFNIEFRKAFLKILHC
UniProt P61169, whole entry: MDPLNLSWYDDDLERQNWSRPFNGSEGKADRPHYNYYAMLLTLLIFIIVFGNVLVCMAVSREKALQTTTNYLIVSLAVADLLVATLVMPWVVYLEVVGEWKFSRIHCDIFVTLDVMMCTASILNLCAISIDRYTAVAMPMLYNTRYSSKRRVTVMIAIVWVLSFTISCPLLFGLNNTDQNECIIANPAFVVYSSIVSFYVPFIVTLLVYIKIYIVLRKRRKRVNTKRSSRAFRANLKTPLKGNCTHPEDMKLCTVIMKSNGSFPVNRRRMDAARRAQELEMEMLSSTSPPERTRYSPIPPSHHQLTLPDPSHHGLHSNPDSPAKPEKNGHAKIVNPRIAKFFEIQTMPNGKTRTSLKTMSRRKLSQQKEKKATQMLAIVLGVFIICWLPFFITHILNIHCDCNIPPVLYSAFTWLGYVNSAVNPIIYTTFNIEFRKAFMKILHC

The term EC50 denotes the midpoint of the concentration-response curve. Low readings indicate an effect from little substance, high ones a need for much substance. The Ki is a measure of affinity in units of concentration, obtained from inhibition or displacement. Lower therefore signals higher affinity.

The target in experiment [1] is D(2) dopamine receptor (Homo sapiens, UniProt P14416). The experiment can be described thus: Agonist activity at human cloned dopamine D2 receptor expressed in CHO cells by [35S]GTPgammaS binding assay. The format is functional, cell-based. (In general: Binding of GTPγS marks nucleotide exchange on a G protein.)
Another experiment is filed under the species Rattus norvegicus. The experiment can be described thus: Selectivity ratio of Ki for rat cloned dopamine D2L receptor to Ki for rat cloned dopamine D3 receptor.
For experiment [2], the target named is D(2) dopamine receptor (Rattus norvegicus, UniProt P61169). Description: Displacement of [3H]spiroperidol from rat cloned dopamine D2L receptor expressed in HEK293 cells. The format is cell-based. In general terms: In a radioligand displacement assay an active substance lowers the binding of a labelled ligand.

At D(2) dopamine receptor [1], `CCCN(CCN1CCN(C(=O)c2cc3ccccc3[nH]2)CC1)[C@H]1CCc2nc(N)sc2C1` gave a concentration giving a half-maximal response (EC50) of 114 nM.

Turning to `CCCN(CCCCN1CCN(C(=O)c2cc3ccccc3[nH]2)CC1)C1CCc2nc(N)sc2C1` (racemic), the Ratio Ki in the experiment filed under Rattus norvegicus turned out to be 305. This molecule gave a Ki at D(2) dopamine receptor [2] of 531 nM.
